Literature values, collected in patent publication US8580735B2.

System: complement activation
Conditions: relative to compstatin amidated at the C-terminus; based on published data

In the case of `CC[C@H](C)[C@H](NC(C)=O)C(=O)N[C@H]1CSSC[C@@H](C(=O)N[C@H](C(N)=O)[C@@H](C)O)NC(=O)[C@H](CCCNC(=N)N)NC(=O)[C@H](Cc2cnc[nH]2)NC(=O)[C@H](Cc2cnc[nH]2)NC(=O)CNC(=O)[C@H](Cc2c[nH]c3ccccc23)NC(=O)[C@H](CC(=O)O)NC(=O)[C@H](CCC(N)=O)NC(=O)[C@H](C(C)C)NC(=O)[C@H](C(C)C)NC1=O`, the Activity over compstatin is listed as 3 × more.
